Source: BindingDB's records for doi:10.1021/jm020046y (National Institute of Diabetes, 2002)

Biological target: P2X purinoceptor 3 (Rattus norvegicus) (UniProt P49654)
Assay: The compound was evaluated for antagonist activity against recombinant rat P2X purinoceptor 3 (P2X3) at 10 uM,expressed in Xenopus oocytes

Cc1nc(/N=N/c2ccc(S(=O)(=O)O)cc2S(=O)(=O)O)c(COP(=O)(O)O)c(C=O)c1O
EC50: 240 nM
